Earlier results as cited in patent US5885786A, “Methods for screening of substances for inhibition of multidrug resistance” (priority 1996, dated 1999).

Conditions: oral or unspecified; cited from earlier work

O=C(O)CCCc1ccc(N(CCCl)CCCl)cc1 [Chlorambucil, 4-[bis(2-chlorethyl)amino] benzenebutanoic acid]
absorption (in words): rapidly and completely absorbed
